Values quoted from earlier work as cited in patent publication US20240246966A1, “NEW PYRAZOLO[1,5-a] PYRIMIDINE DERIVATIVES AS SIGMA LIGANDS” (ACONDICIONAMIENTO TARRASENSE, priority 2021, published 2024).

The chains behind the UniProt entries cited, without tags or fusion partners.
UniProt Q99720, whole entry: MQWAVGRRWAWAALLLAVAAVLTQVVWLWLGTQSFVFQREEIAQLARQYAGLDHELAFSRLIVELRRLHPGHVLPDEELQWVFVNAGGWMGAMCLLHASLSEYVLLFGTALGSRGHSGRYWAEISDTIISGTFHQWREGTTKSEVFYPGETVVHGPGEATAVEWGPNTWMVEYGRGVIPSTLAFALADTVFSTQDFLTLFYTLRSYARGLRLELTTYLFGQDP

Target: sigma-1 (σ1) site (Homo sapiens, UniProt Q99720)
Conditions: background statement; cited from earlier work

Q: Which “affinity for the sigma-1 (σ1) site” value does the source give for (+)-SKF-10047 here?
A: Its value is “nanomolar affinity”.
